Reference: patent publication US10144730B2, “Inhibitors of c-Jun-N-terminal kinase (JNK)” (Dana-Farber Cancer Institute, Inc., priority 2011, dated 2018)

By UniProt entry, the sequences of proteins in these tests, tags left out. Where a name states a change or a piece, a line headed by the entry shows the natural chain unless it says otherwise.
UniProt P45983: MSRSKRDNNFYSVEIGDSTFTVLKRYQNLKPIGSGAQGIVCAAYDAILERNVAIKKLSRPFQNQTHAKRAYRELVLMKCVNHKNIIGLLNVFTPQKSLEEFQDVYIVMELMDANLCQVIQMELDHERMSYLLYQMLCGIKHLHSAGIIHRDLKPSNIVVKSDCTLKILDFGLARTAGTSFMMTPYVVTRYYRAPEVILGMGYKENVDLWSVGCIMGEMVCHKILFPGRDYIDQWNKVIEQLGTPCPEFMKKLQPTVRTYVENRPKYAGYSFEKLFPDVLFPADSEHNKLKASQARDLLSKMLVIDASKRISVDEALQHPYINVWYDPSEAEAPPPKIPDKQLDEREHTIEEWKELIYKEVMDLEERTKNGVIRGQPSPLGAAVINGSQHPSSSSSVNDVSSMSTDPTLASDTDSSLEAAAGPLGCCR

Molecular target: JNK1 (Homo sapiens, UniProt P45983)
Assay: Biochemical JNK1 kinase inhibition (Z'-lyte format)
Conditions: Table 2

Structure (SMILES): Cc1cc(NC(=O)c2cccc(NC(=O)/C=C/CN(C)C)c2)ccc1Nc1nccc(-c2cccnc2)n1 [JNK-IN-8]
- IC50: 4.67 nM
